Test system: AML cell lines (OCIAML5)
Assay: Cancer cell line growth inhibition (Cell-titer glo, GI50, day 3 and day 7), compound 17
Assay type: cell-based
Details: compound 17, 0 to 10 micromolar

In the case of CSCC[C@H](NC(=O)c1ccc(N)cc1)C(=O)Nc1nc(-c2cccc(-c3ccncc3)c2)cs1 [Compound 17, 4-amino-N-[(1S)-3-methylsulfanyl-1-[[4-[3-(4-pyridyl)phenyl]thiazol-2-yl]carbamoyl]propyl]benzamide], the “Sensitivity of the AML cell line relative to the other tested cell lines (GI50, FIG. 1)” value is reported as “more sensitive to BRG1/BRM inhibition than the other tested cell lines”.
